Test system: CaCo-2 cells
Test: Cellular stress marker expression by RT-qPCR in CaCo-2 cells
Type: cell-based, human
Details: CaCo-2 cells, 5, 24 and 48 h
Description: RT-qPCR was performed to evaluate changes in the gene expression of cellular stress markers. […] The cells were simultaneously treated with 2 mM KBrO3 (Penta, Czech Republic), 100 nM THA (thapsigargin; Sigma-Aldrich, Missouri, USA), and 10 nM TCDD (Cambridge Isotope Laboratories, Massachusetts, USA) as model cellular stress inducers. Previous publications report the primer sequences and numbers of the Universal Probe Library (UPL; Roche Life Sciences, Germany) used for detection of ATF3, CDKN1A (p21), CYP1A1, DDIT3, HMOX1, HSPA1B (HSP70), and HSPA5 mRNAs ([Procházková et al., 2018]; [Šimečková et al., 2020]). The TXNRD1 mRNA (NM_003330.2) level was detected using the forward primer, […]; reverse primer, […]; and UPL probe #81. TaqMan™ Gene Expression Assays (Thermo Fisher Scientific, Waltham, MA, USA) were used to determine the levels of FGF21 (Hs00173927_m1), GADD45A (Hs00169255_m1), GDF15 (Hs00171132_m1), and SRXN1 (Hs00607800_m1). The amplification was run in a 10-µL reaction mixture containing 1 µL of sample, using Kapa Probe Fast One-Step (Kapa Biosystems Pty, Cape Town, South Africa) on a LightCycler® 480 System (Roche Diagnostics, Czech Republic) using the previously published sequence ([Procházková et al., 2018]). […]

[K+].[O-][Br+2]([O-])[O-] [KBrO3, reference compound]
expression of HMOX1, SRXN1, TXNRD1 (oxidative stress): highly stimulating effect
expression of HSPA5, DDIT3, HSPA1B (HSP70), CDKN1A (p21), GADD45A: increased

Source: article PMC10307035, “Antiviral activity of singlet oxygen-photogenerating perylene compounds against SARS-CoV-2: Interaction with the viral envelope and photodynamic virion inactivation” (Virus Research, 2023)
